# Antibody variant affinities, Ab-14 light chain, assay B

The measurements come from Li et al. 2023 (doi:10.1038/s41467-023-39022-2) through the FLAb antibody collection.

Binding partner: SARS-CoV-2 spike HR2 peptide, sequence PDVDLGDISGINAS.

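The parent was found by panning a naive human phage display library on the peptide. The variants were designed computationally from a first round of random CDR variants and then made and measured. Several design methods are mixed in this list. AlphaSeq pools MATa yeast showing the antibodies with MATalpha yeast showing the peptide. Mating (16 h, 30 °C) was followed by selection of diploids and sequencing of their barcodes. The ratio of observed to expected reads was calibrated, replicate by replicate, on BCL2-family standards whose Kd was known from biolayer interferometry. Mating was done six times.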

Parent: Ab-14, a human scFv built as VH, three GGGGS repeats, VL. Only the CDRs of the light chain vary.
VH: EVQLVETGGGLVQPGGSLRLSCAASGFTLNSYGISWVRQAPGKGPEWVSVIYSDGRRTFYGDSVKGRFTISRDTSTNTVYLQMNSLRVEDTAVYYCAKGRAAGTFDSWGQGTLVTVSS
VL: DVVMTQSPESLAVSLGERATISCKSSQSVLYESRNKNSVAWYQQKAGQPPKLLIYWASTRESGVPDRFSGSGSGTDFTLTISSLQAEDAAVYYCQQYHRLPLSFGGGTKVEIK

The parent's light chain CDRs are KSSQSVLYESRNKNSVA, WASTRES, QQYHRLPLS; each variant's own CDRs replace them letter for letter.
Variants here have at most six changes.
Each Kd is an estimate from the mating assay, the geometric mean of the replicates in which the pair was seen; lower is stronger.
"not detected" means that the variant was in the library but no mating with the target was seen in any replicate; the authors take this as a sign of poor binding, and no number exists.
Background: pairings of all light chain designs with three empty control strains gave a value in 4% of cases (median 430 nM, 5th percentile 38 nM). Values in that range, when seen in few replicates, are hard to tell from nonspecific mating.

CDR-L1	CDR-L2	CDR-L3	apparent Kd	detected
KSSQSVLYESRNKNSVA	NASTRES	QIYHRLPFS	4.7 nM	6 of 6
KSSQSYHYESRNKNSVA	NASTRES	QQYHRLPLS	3.8 nM	6 of 6
KSSQSVLYESRNKNSVA	NASTRMS	QQYHRLPLS	2.7 nM	12 of 12
KSSPSVIYESRNENSVA	SASKRES	QQYHRLPLS	1.3 nM	6 of 6
KSAISYLEESRNKNSVA	EASTRES	QQYHRLPLS	3.8 nM	6 of 6
KSSESVYYESRNKNSVA	WASTRES	QQYHRLPLS	180 nM	1 of 6
KLSQSVAYESRNKNSVA	QASTRES	QQYARLPLS	540 pM	6 of 6
KLSQSVLYESRNKNSVA	NASLRMS	QQYHRLPLS	2.2 nM	6 of 6
HSSPSVEYESRNKNSVA	NASQRIS	QQYHRLPLS	870 pM	6 of 6
KSSQSVLHESRNCNSVA	RASTRNS	QQYHRLPLS	not detected	0 of 6
KVSQSELYEQRNKNSVA	EASTRES	QQYHRLPLS	1.2 nM	6 of 6
KSSQSYLYESRNKNSVA	EASTRES	QQYHRLPLS	650 pM	6 of 6
KLSQLVLYESRNKNSVA	DASTRES	QQYHRLPLS	940 pM	6 of 6
KLLQSVLYESRNFNSVA	HASTRED	QQYHRLPLS	650 pM	6 of 6
KLQQSHLYESRNKNSVA	NASTRLS	QQYHRLPLS	880 pM	6 of 6
KSSQSVLGESGNKNSVA	HASTRED	QQYHRLPLS	4.7 nM	6 of 6
ASSTSVLYESENGNSVA	WASTRES	QQYHRLPLS	55 nM	3 of 6
HSSQSKLYESTHKNSVA	QASTRES	QQYHRLPLS	1.4 nM	6 of 6
KSSQSVLDESRNKNSVA	HASTRES	QQYSRLALS	3.1 nM	6 of 6
KVSQSVLYEDRNSNSVA	NASQRES	QQYHRLPLS	1.3 nM	6 of 6
KLSQSMLYESRNVNNVA	SASTRES	QQYHRLPLM	530 pM	6 of 6
KASQSVLYESRNKNSVA	DASTRSS	QQYHRLPLS	5.2 nM	6 of 6
KVSQSVVYEGRNKNSVA	HASTRED	QQYHRLPLS	1.3 nM	6 of 6
KLSQSQLYESRNSNSVA	NASQRES	QQYHRLPLS	360 pM	6 of 6
KFSWSVLFESRNKNSVA	DASTRSS	QQYHRLPLS	560 pM	6 of 6
KLSQSILCESRNKNSVA	DASTRES	QQYHRLPLS	600 pM	6 of 6
KLSQSVLYESRNCNPVA	WAKTRES	QQYHRLPLS	390 nM	4 of 6
KSSWSVLFESRNKNSVA	DASTRES	QQYHRLPLS	1.6 nM	6 of 6
KASESDLYESRNKNSVA	WASWRES	QQYFRLPLS	160 nM	4 of 6
KLDQSHLYESRNWNSVA	NASTREE	QQYHRLPLS	480 pM	6 of 6
KLSQSVLYEDRNKNSVA	NASTRMS	QQYHRLPLS	480 pM	6 of 6
KLSQSQLYGSRNKNSVA	NASTRES	QQYHRLPLS	6.4 nM	6 of 6
KSSQSVLYESRNKNSVA	DASCRES	QQYHRLPLS	2.1 nM	6 of 6
HSSPSVHYESRNKNNVA	NASTRES	QQYHRLPLS	220 pM	6 of 6
KSSQSVLYEDTNENSVA	WASTREE	QQYHRLPLS	69 nM	5 of 6
KLSQSFLYESRNKNSVA	GASTRES	QQYHRLTLS	530 pM	6 of 6
KVSQSWPYESRNKNSVA	NASTRES	QQYHRLPLS	790 pM	6 of 6
KLYQSVLYESRNKNSVA	NASTRES	QQYHRLPLM	390 pM	6 of 6
KFSPSVLYESRQKNSVA	NASTRES	QQYHRLPLS	670 pM	6 of 6
KLSQSMEYESRNVNSVA	YASTREL	QQYHRLPLS	5.1 nM	6 of 6
KESQSWLYESRNKNNVA	GASTRES	QQYHRLPLS	1.6 nM	6 of 6
KVSPSELYESRNKNAVA	EASTRES	QQYHRLPLS	790 pM	6 of 6
KSSWSVLFESRNKNSVA	DASTRMS	QQYHRLPLS	2.5 nM	6 of 6
KSSQSVLYESRNKNAVA	WASTRES	QQYHRLPLS	210 nM	5 of 6
KLRQSTLYESRNKNSVA	QASTRES	QQYHRLPLF	800 pM	6 of 6
KSSQLKLYETRNKNSVA	WASTRES	QQYHRLPLS	not detected	0 of 6

A selection of 4 entries from above:

CDR-L1,CDR-L2,CDR-L3,apparent Kd,detected
KSSPSVIYESRNENSVA,SASKRES,QQYHRLPLS,1.3 nM,6 of 6
KSSQSVLYESRNKNAVA,WASTRES,QQYHRLPLS,210 nM,5 of 6
KSSQLKLYETRNKNSVA,WASTRES,QQYHRLPLS,not detected,0 of 6
KSSQSVLYESRNKNSVA,NASTRMS,QQYHRLPLS,2.7 nM,12 of 12

A sequence that the file lists under several names has all its replicates pooled.
The parent sequence was in this pool as ten entries: three were never detected, three once, and four in most replicates, with averages from 2.2 nM to 240 nM.
The authors' rule: three or more of the six replicates give a measured affinity, fewer mean a poor binder.
Values of this round are not directly comparable with the first-round values of the same sequences.